In PubChem BioAssay AID875 (National Center for Advancing Translational Sciences (NCATS), 2007):
Only a part is listed here, and it is no random draw. Calls of active or inactive are those of the source. Calls come from the whole dose curve; as a rule, active = well fitted inhibition curve with a large enough effect; inconclusive = small, poorly fitted or top-dose-only effect; inactive = no such curve, though single readings can be large or run the other way.

By UniProt entry, the sequences of proteins in these tests, tags left out.
UniProt P38398, whole entry: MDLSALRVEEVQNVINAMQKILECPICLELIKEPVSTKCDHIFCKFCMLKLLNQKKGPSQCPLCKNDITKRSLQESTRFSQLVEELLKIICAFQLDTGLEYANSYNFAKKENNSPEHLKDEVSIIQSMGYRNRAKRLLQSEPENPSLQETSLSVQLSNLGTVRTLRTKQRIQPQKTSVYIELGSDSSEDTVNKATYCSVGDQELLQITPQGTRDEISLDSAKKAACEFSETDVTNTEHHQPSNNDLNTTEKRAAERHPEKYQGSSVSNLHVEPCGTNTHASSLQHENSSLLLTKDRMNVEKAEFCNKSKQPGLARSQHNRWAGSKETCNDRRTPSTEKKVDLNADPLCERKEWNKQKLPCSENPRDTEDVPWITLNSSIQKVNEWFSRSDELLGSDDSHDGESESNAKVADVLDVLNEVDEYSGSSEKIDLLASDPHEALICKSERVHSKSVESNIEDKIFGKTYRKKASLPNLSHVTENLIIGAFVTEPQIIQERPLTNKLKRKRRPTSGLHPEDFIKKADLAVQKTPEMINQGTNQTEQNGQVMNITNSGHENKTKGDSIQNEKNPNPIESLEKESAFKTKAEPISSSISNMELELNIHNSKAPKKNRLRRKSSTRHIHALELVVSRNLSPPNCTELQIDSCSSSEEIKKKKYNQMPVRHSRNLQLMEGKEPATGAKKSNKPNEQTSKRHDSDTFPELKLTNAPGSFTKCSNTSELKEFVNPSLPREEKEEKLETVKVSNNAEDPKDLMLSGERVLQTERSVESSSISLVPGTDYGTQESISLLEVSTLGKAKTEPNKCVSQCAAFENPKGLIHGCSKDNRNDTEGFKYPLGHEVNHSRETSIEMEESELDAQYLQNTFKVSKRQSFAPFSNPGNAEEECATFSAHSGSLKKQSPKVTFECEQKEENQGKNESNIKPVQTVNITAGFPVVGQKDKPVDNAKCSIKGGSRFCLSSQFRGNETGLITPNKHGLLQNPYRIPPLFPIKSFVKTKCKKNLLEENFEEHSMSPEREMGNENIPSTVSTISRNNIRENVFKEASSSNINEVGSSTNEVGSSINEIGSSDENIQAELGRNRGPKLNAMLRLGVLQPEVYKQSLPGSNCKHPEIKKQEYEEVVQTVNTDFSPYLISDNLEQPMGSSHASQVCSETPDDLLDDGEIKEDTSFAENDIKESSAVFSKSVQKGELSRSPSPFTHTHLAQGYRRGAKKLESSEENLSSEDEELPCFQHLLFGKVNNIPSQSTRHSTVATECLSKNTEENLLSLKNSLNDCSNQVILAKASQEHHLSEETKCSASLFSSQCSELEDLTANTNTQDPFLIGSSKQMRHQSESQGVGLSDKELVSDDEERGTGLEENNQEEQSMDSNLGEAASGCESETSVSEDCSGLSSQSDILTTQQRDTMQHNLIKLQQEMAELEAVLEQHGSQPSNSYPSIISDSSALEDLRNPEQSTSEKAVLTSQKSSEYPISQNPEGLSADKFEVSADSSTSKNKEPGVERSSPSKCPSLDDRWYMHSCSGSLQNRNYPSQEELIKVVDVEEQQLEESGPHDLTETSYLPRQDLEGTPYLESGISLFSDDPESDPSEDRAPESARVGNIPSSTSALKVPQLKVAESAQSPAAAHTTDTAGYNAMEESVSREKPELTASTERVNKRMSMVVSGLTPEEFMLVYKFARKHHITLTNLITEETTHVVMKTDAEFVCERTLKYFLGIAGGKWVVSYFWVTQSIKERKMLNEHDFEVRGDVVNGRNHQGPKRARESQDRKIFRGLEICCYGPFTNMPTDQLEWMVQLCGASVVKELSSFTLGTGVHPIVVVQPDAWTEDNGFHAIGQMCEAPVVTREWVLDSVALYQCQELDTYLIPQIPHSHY

target: Breast cancer type 1 susceptibility protein (Homo sapiens) (UniProt P38398); assay: qHTS Assay for Inhibitors of BRCT-Phosphoprotein Interaction (Green Fluorophore); conditions: BRCA1 BRCT-phosphopeptide binding, green fluorescence polarization; at 76.9 µM (top of the series);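 note: plate controls were peptide without protein for full effect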
Procedure: NIH Molecular Libraries Screening Centers Network [MLSCN]
NIH Chemical Genomics Center [NCGC]
PI Name: Natarajan, Amarnath; University of Texas
A complex of BRCT (C-terminal portion of BRCA1, MW ~35 kDa, His-tagged) and fluorescently labeled pBACH1 phosphorylated 10 aa peptide fragment of BACH1, a helicase implicated in DNA repair, is incubated with library members. Inhibitors of BRCT-pBACH1 binding are detected by a decrease in the fluorescence polarization (FP) of the fluorophore. In order to minimize the effect of fluorescence artifacts and to increase the overall robustness of the screen, the compound library members were incubated in separate reactions with fluorescein labeled probe-protein complexes. Protein and labeled probes were supplied by Dr. Amarnath Natarajan, Department of Pharmacology and Toxicology, University of Texas Medical Branch Galveston, TX.
Assay Buffer: 16mM Na2HPO4, 4 mM NaH2PO4, 150 mM NaCl, 1 mM EDTA, 1 mM DTT, 0.02% NaN3, and 0.01% Tween 20 at pH 7.3.
100 nM labeled decapeptide/250 nM protein in columns 1, 2, 5 - 48. […]
via Kalypsys PinTool. The plates were incubated for 12 min at room temperature, and then read on ViewLux (Perkin-Elmer) High throughput CCD imager using FITC for the fluorescein-labeled decapeptide probe polarization filter sets. […]

Structure (SMILES) | activity change, negative = inhibition
O=[N+]([O-])C(Cl)(Cl)Cl | inactive: -1.01%
CN(CCCl)CCCl | inactive: -0.783%
